# Test results taken from patent publication US20230285275A1, “BIOCOMPATIBLE STRUCTURE COMPRISING HOLLOW CAGE, AND MANUFACTURING METHOD THEREFOR” (MEDIFAB CO., LTD., priority 2018, published 2023).
# How the values were obtained:
# [1] = tested on: ALP, Runx-2, OCN, and BSP; assay: Analysis of osteogenic differentiation, real-time PCR gene expression; type: cell-based; conditions: early stage (7 days) versus up to 14 days of culturing
# Procedure: Effects of BMP-2 released from the scaffolds according to Examples 1 and 2 and Comparative Examples 1 and 2 on osteogenic differentiation were analyzed. Specifically, gene expression was evaluated by real-time PCR using particular primer sets, and the primer sets used herein are shown in Table 1 below. A total RNA was isolated from in vitro cultures on day 3, day 7, and day 14 using a RNeasy mini kit (Quiagen, USA), and subjected to reverse transcription using a high capacity cDNA reverse transcription kit (Intron Biotechnology, Korea). After synthesizing cDNA, real-time PCR (LightCycler® instrument, Roche) was performed in ALP, Runx-2, OCN, and BSP. GAPDH was used as an endogenous control.
# [2] = tested on: ALP activity of mMSCs; assay: ALP assay and staining; type: cell-based; conditions: early stage (7 days) versus up to 14 days of culturing
# Procedure: ALP activity of mMSCs was analyzed to determine biological activity of BMP-2 released from the scaffolds according to Examples 1 and 2 and Comparative Examples 1 and 2. Specifically, the activity of alkaline phosphatase (ALP), as a marker of the early stage of osteogenic differentiation was analyzed based on conversion of colorless p-nitrophenylphosphate into colored p-nitrophenol. The cells were washed twice with DPBS and lysed with a 0.2% Triton X-100 solution. ALP activity of cell lysates was analyzed using p-nitrophenylphosphate as a substrate. After culturing the cells at room temperature for 30 minutes, the biological activity was determined using a released amount of p-nitrophenol. The color change was measured using a spectrometer at 405 nm. BMP-2 was used as a positive control.
# For ALP staining, the cells were washed with DPBS and fast blue PR salt was added to each well. Then, the cells were cultured at room temperature for 10 minutes and observed with an optical microscope.
molecule,measurement,setting,value
"BMP-2: Bone morphogenetic protein-2, used as positive control (protein, UniProt P12643 283-396, looked up) Bone morphogenetic protein 2: QAKHKQRKRLKSSCKRHPLYVDFSDVGWNDWIVAPPGYHAFYCHGECPFPLADHLNSTNHAIVQTLVNSVNSKIPKACCVPTELSAISMLYLDENEKVVLKNYQDMVVEGCGCR",osteogenic gene expression time course,[1],significantly increased in the early stage (7 days)
same,ALP activity time course,[2],significantly increased in the early stage (7 days)
